Molecular target: T1, purified PP1α released from the GST-PP1α fusion protein by thrombin (human)
T1 construct: Apparent Mr 38,000 on the gel; also called protein phosphatase 1α; phosphatase 1α
Experiment: GST pulldown of purified PP1α, immunoblot with anti-PP1α antibody

B1: GST alone (on beads) (other, UniProt P08515 1-218, looked up)
chain: MSPILGYWKIKGLVQPTRLLLEYLEEKYEEHLYERDEGDKWRNKKFELGLEFPNLPYYIDGDVKLTQSMAIIRYIADKHNMLGGCPKERAEISMLEGAVLDIRYGVSRIAYSKDFETLKVDFLSKLPEMLKMFEDRLCHKTYLNGDHVTHPDFMLYDALDVVLYMDPMCLDAFPKLVCFKKRIEAIPQIDKYLKSSKYIAWPLQGWQATFGGGDHPPK
notes: Negative control of both pulldown experiments; also called GST-beads
Does B1 bind?
Result: no binding
